In PubChem BioAssay AID624287 (National Center for Advancing Translational Sciences (NCATS), 2012):
This is a selection; strong and weak results do not stand in their true shares. Records with an inconclusive call do not appear. The source made the active and inactive calls. The call rests on the fitted dose curve; in most records, active means well fitted activation curve with a large enough effect; inconclusive means small, poorly fitted or top-dose-only effect, or another doubt; inactive means no such curve, though single readings can be large or run the other way; cell line not stated here.

Test: qHTS for Agonist of gsp, the Etiologic Mutation Responsible for Fibrous Dysplasia/McCune-Albright Syndrome: qHTS;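 further: phosphodiesterase inhibitor Ro 20-1724 added with compounds to block cAMP breakdown; nearly all actives have a fitted effect of over 60% in size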
Conditions: gsp mutant cells, cAMP HTRF, 30 min; at 76.9 µM (top of the series) unless noted

SMILES	activation (cAMP increase)
COc1ccccc1CNC(=O)COC(=O)C(O)(c1ccccc1)c1ccccc1	inactive: -4.9%
O=[N+]([O-])c1cc([N+](=O)[O-])c(-c2cnn(-c3ccccc3)c2)c([N+](=O)[O-])c1	inactive: 0.348% [at 15.4 µM]
CC1(CBr)Cn2c(nc3ccccc3c2=O)S1 (centres undefined)	inactive: 8.34%
CC(C)/C=N\N=C(\N)N[N+](=O)[O-]	inactive: -0.0269% [at 15.4 µM]
CCOP(=O)(Nc1ccc(C)cn1)OCC	inactive: 1.32%
CCOP(=O)(NC(=NC(C)c1ccccc1)NC(C)c1ccccc1)OCC (centres undefined)	inactive: -35.1%
O=C(O)C(O)c1ccc(N(CCCl)CCCl)cc1.c1ccncc1 (centres undefined)	inactive: -32.3%
CCC1=CC2Cc3nc4ccc(Cl)cc4c(N)c3C(C1)C2 (centres undefined)	inactive: 16.4%
O=P1(Nc2ccccn2)COc2ccccc2OC1	inactive: -6.04%
CC(C)(C)C(=O)NC(Sc1ncccn1)C(Cl)(Cl)Cl (centres undefined)	inactive: -35.6%
Clc1n[nH]nc1-c1nn[nH][15n]1	inactive: 26%
O=P1(N(CCCl)CCCl)NCCC(C(F)(F)F)O1 (centres undefined)	inactive: 17.7%
O=P1(Nc2ncccn2)COc2ccccc2OC1	inactive: -4.34%
CN1CCCCC1COC(=O)C1(O)c2ccccc2CCc2ccccc21 (centres undefined)	inactive: -0.546%
COc1ccccc1OP(C)(=O)Nc1c(C)cccc1C (centres undefined)	inactive: -14.3%
NS(=O)(=O)c1cccc(NC(=O)COC(=O)C(O)(c2ccccc2)c2ccccc2)c1	inactive: 28.1%
O=P1(Nc2ccc(Br)cn2)COc2ccccc2OC1	inactive: 33%
Cc1ccc(OCC(=O)OC2CN3CCC2CC3)cc1 (centres undefined)	inactive: -57.4%
Nc1cccc([As](=O)(O)c2ccccc2)c1	inactive: 0.382%
CP(=O)(Nc1ccc(SC(F)(F)F)cc1)Oc1ccccc1 (centres undefined)	inactive: -0.594% [at 15.4 µM]
CCCOc1ccc(NP(C)(=O)Oc2ccc(Cl)cc2)cc1 (centres undefined)	inactive: 20.7% [at 15.4 µM]
COc1cc(C2NCCC3(OCCO3)C2(C)C)cc(OC)c1OC.O=[N+]([O-])c1cc([N+](=O)[O-])c(O)c([N+](=O)[O-])c1 (centres undefined)	inactive: -24.5%
Cc1ccc(C(=O)OC2CN3CCC2CC3)cc1 (centres undefined)	inactive: -36.2%
CC1CCC(C(C)C)C(OP(=O)(Nc2ccccn2)c2ccccc2)C1 (centres undefined)	inactive: 0.947% [at 15.4 µM]

SMILES	activation (cAMP increase)
Cc1nn(-c2ccccc2)c2c1P(=O)(N1CCOCC1)N(C)C(c1ccccc1)=N2 (centres undefined)	inactive: 6.9%
CCCC1OP(=O)(Nc2ccccc2)OCC1CC (centres undefined)	inactive: -14.6%
O=C(/C=C/c1ccccc1)OC1CN2CCC1CC2 (centres undefined)	inactive: 12.5% [at 15.4 µM]
CN(C)C1(CNC(=O)c2ccc(S(C)(=O)=O)cc2)CCCCC1	inactive: -26.8% [at 15.4 µM]
CC1=NCCc2c1[nH]c1ccccc21.O=[N+]([O-])c1cc([N+](=O)[O-])c(O)c([N+](=O)[O-])c1	inactive: -0.572%
CN(C)C(=O)c1cc([N+](=O)[O-])cc2c1-c1c(cc([N+](=O)[O-])cc1[N+](=O)[O-])C2=O	inactive: 19.5%
O=[N+]([O-])c1ccc2c(c1)nnn2O	inactive: -41%
CCOP1(=S)c2c(C)nn(CCC#N)c2N=C(c2ccc(F)cc2)N1C (centres undefined)	inactive: -4.84%
N#CCCN(C(=O)COC(=O)C(O)(c1ccccc1)c1ccccc1)c1ccc(F)cc1	inactive: -25.1%
CS(=O)(=O)c1cc([N+](=O)[O-])c2no[n+]([O-])c2c1	inactive: 3.51%
O=P(Nc1nccs1)(Oc1ccccc1)Oc1ccccc1	inactive: -25.5%
CCOP1(=S)c2c(C)nn(CCC#N)c2N=C(c2ccccc2F)N1C (centres undefined)	inactive: 24.6%
O=C(O)COc1ccc([As](=O)(O)O)cc1[N+](=O)[O-]	inactive: 2.43%
Nc1ccccc1[As](=O)(O)c1ccccc1	inactive: -11.1% [at 15.4 µM]
CCCOP(=S)(Nc1nc(N)cc(=O)[nH]1)OCCC	inactive: -15.7%
Cc1ccc(C)c(NP(C)(=O)Oc2ccccc2)c1 (centres undefined)	inactive: 11.3%
Cc1ccc(NCCc2c([N+](=O)[O-])cc([N+](=O)[O-])cc2[N+](=O)[O-])cc1	inactive: -16.4%
CP(=O)(Nc1cccc(Br)c1)Oc1ccccc1 (centres undefined)	inactive: 22.4%
Cc1cc(C)cc(OP(C)(=O)Nc2ccccn2)c1 (centres undefined)	inactive: 1.42%
CCOP(=O)(Nc1cccc2ccccc12)OCC	inactive: -27.5%
COc1ccccc1OP(C)(=O)Nc1cccc(Br)c1 (centres undefined)	inactive: -3.13%
COc1cc(C(=O)NCC2(N3CCOCC3)CCCCC2)cc(Cl)c1OC(C)C	inactive: 22.1% [at 15.4 µM]
O=C(OC1CN2CCC1CC2)c1ccc(Cl)cc1 (centres undefined)	inactive: -35.5%
CCOC(=O)c1ccc(NP(C)(=O)Oc2cc(C)cc(C)c2)cc1 (centres undefined)	inactive: -8.55%

SMILES	activation (cAMP increase)
Cc1cc(C)cc(OP(C)(=O)Nc2ccc(C)cc2C)c1 (centres undefined)	inactive: -22.1%
O=[As](O)(c1cccc(O)c1)c1cccc(O)c1	inactive: -0.618%
Cc1cccc(OCC(=O)OC2CN3CCC2CC3)c1 (centres undefined)	inactive: 0%
COc1ccc(N/C(=N/P(=O)(N2CCOCC2)N2CCOCC2)N2CCOCC2)cc1	inactive: -1.27% [at 15.4 µM]
O=[N+]([O-])c1cc(Oc2ccc([N+](=O)[O-])cc2C(F)(F)F)cc([N+](=O)[O-])c1	inactive: -1.21%
Cc1cc(=O)[nH]c(N[N+](=O)[O-])n1	inactive: -18.2%
CCN(CC)CCCOC(=O)C(O)(c1ccccc1)c1ccccc1	inactive: -23.1%
O=C(OC1CN2CCC1CC2)C12CC3CC(CC(C3)C1)C2 (centres undefined)	inactive: 5.07%
Cc1c2c(nc3ccccc13)SC(C(Cl)Cl)C2 (centres undefined)	inactive: 24.6%
COc1cc(I)ccc1[As](=O)(O)O	inactive: 0.883% [at 15.4 µM]
COc1ccc2nc(NP(=O)(c3ccccc3)c3ccccc3)sc2c1	inactive: 16.5%
Cc1ccc(S(=O)(=O)NCCCCC(NC(=O)OC(C)(C)C)C(=O)O)cc1.c1ccc(Nc2ccccc2)cc1 (centres undefined)	inactive: 5.34%
O=P1(N(CCCl)CCCl)OCCCN1CCCl (centres undefined)	inactive: -2.67%
O=P1(N(CCCl)CCCl)Nc2ccccc2N1	inactive: -32.9%
Cc1ccc(NP(C)(=O)Oc2ccccc2)c(C)c1 (centres undefined)	inactive: 25.8%
COC(=O)C1(C)COP(=O)(N2CCCCCC2)OC1 (centres undefined)	inactive: -42.7%
COc1ccccc1OP(C)(=O)Nc1ccc(C)cc1 (centres undefined)	inactive: -30.9%
ClCCSc1nnc(-c2cccnc2)o1	inactive: -2.27%
CCOC(=O)c1ccc(NP(C)(=O)Oc2ccccc2)cc1 (centres undefined)	inactive: -0.57%
Cc1cc(C)cc(OP(C)(N)=O)c1 (centres undefined)	inactive: 0.96% [at 15.4 µM]
O=[N+]([O-])c1cc([N+](=O)[O-])c(-c2ccn[nH]2)s1	inactive: -1.91%
COc1ccc(OP(C)(=O)Nc2cccc(F)c2)cc1 (centres undefined)	inactive: -23.5%
CCN(CC)C(=S)SC(NC=O)C(Cl)(Cl)Cl (centres undefined)	inactive: -2.37%
O=C(OC1CN2CCC1CC2)c1cccc2[nH]cnc12 (centres undefined)	inactive: 15.3% [at 15.4 µM]

SMILES	activation (cAMP increase)
CC(C)NC(=O)NP(=O)(Oc1ccccc1)Oc1ccccc1	inactive: -2.42% [at 15.4 µM]
COc1ccccc1OP(C)(=O)Nc1cc(Cl)ccc1C (centres undefined)	inactive: -32.4% [at 15.4 µM]
COc1cc(C(=O)NCC2(N3CCOCC3)CCCCC2)ccc1OCC(C)C	inactive: 0.561%
O=[N+]([O-])c1ccc(-c2cc([N+](=O)[O-])c(O)c([N+](=O)[O-])c2)cc1	inactive: 6.57% [at 15.4 µM]
O=[As](O)(c1ccc(O)cc1)c1ccccc1O	inactive: 0.0291% [at 15.4 µM]
C[As](=O)(O)c1cccc(C(=O)O)c1	inactive: 16.8%
Cc1ccc2nc3c(c(C)c2c1)CC(C(Cl)Cl)S3 (centres undefined)	inactive: -4.2% [at 15.4 µM]
O=[N+]([O-])c1ccc2c(c1)C=Nc1ccccc1O2	inactive: 10.6%
Cc1cccc(C)c1OP(C)(N)=O (centres undefined)	inactive: 0.475% [at 15.4 µM]
CC(C)(C)c1ccc(OP(C)(=O)Nc2ccc(SC(F)(F)F)cc2)cc1 (centres undefined)	inactive: -16.7%
Cc1ccc(OP(=O)(Nc2ccc([N+](=O)[O-])cn2)Oc2ccc(C)cc2)cc1	inactive: -20.7%
CCOC(=O)Nc1cccc([As](=O)(O)O)c1	inactive: -14.5%
CP(=S)(Nn1cnnc1)Oc1ccccc1 (centres undefined)	inactive: -5.12%
O=[N+]([O-])c1ccc(Nc2ccc(Oc3ccc([N+](=O)[O-])cc3[N+](=O)[O-])cc2)c([N+](=O)[O-])c1	inactive: 29.5%
CP(=O)(Nc1ccccc1Br)Oc1ccccc1 (centres undefined)	inactive: -3.64% [at 15.4 µM]
COc1ccccc1OP(C)(=O)Nc1ccccc1 (centres undefined)	inactive: 0.217% [at 15.4 µM]
Cc1cc(SC(NC=O)C(Cl)(Cl)Cl)ncn1 (centres undefined)	inactive: -0.103% [at 15.4 µM]
O=P(Nc1ccccn1)(c1cccc2ccccc12)c1cccc2ccccc12	inactive: -23.6%
CC1CCNP(=O)(N(CCCl)CCCl)O1 (centres undefined)	inactive: 15.4% [at 15.4 µM]
CCOC(=O)Nc1ccc([As](=O)(O)O)c(O)c1	inactive: 19.3%
Cc1cc(SC(NC(=O)c2ccccc2)C(Cl)(Cl)Cl)nc(C(C)C)n1 (centres undefined)	inactive: -23.7%
CCCCOc1ccc(C(=O)NCC2(N3CCCCC3)CCCCC2)cc1OC	inactive: -4.62% [at 15.4 µM]
